Measurements reported in patent US12377101B2, “Combination therapies” (Mirati Therapeutics, Inc., priority 2018, dated 2025).

What was measured:
SW1573 cells = test: SW1573 tumor bearing mice, single agents and combination; format: in vivo, nude/nude mice; conditions: Compound 478 100 mg/kg, RMC-4550 30 mg/kg
Protocol: (§1) Immunocompromised nude/nude mice are inoculated in the right hind flank with cells or patient derived tumor samples harboring a KRas G12C mutation. When tumor volumes reach between 200-400 mm^3 in size, the mice are divided into four groups of 5-12 mice each. The first group is administered vehicle only. […] The fourth group is administered the single agent dose of the KRas G12C inhibitor in combination with the single agent dose of the SHP-2 inhibitor. […] Tumor volumes are measured using a caliper every two-three days and tumor volumes are calculated by the formula: 0.5×[…].
20 nude/nude mice per study were inoculated in the right hind limb with 5×10^6 SW1573 cells, KYSE410 cells or H358 cells.

H2122 cells = test: H2122 tumor bearing mice, single agents and combination; format: in vivo, nude/nude mice; conditions: Compound 478 100 mg/kg, RMC-4550 30 mg/kg
Protocol: as §1
Similarly, 25 nude/nude mice were inoculated in the right hind limb with 5×10^6 H2122 cells.

Compound: C=C(F)C(=O)N1CCN(c2nc(OC[C@@H]3CCCN3C)nc3c2CCN(c2cccc4cccc(Cl)c24)C3)C[C@@H]1CC#N [Compound 478]
- Average Tumor Volume (SW1573 cells; Study Day 11, p.o. daily): 346 mm^3
- Average Tumor Volume (SW1573 cells; Study Day 16, p.o. daily): 379 mm^3
- Average Tumor Volume (H2122 cells; Study Day 0, p.o. daily, 5 mice): 347 mm^3
- Average Tumor Volume (H2122 cells; Study Day 4, p.o. daily): 369 mm^3
- Average Tumor Volume (H2122 cells; Study Day 6, p.o. daily): 379 mm^3
- Average Tumor Volume (H2122 cells; Study Day 8, p.o. daily): 387 mm^3
- Average Tumor Volume (H2122 cells; Study Day 13, p.o. daily): 391 mm^3
- Average Tumor Volume (H2122 cells; Study Day 15, p.o. daily): 396 mm^3
- Average Tumor Volume (H2122 cells; Study Day 18, p.o. daily): 405 mm^3
- Average Tumor Volume (H2122 cells; Study Day 24, p.o. daily): 427 mm^3
- Average Tumor Volume (H2122 cells; Study Day 27, p.o. daily): 444 mm^3
- Average Tumor Volume (H2122 cells; Study Day 29, p.o. daily): 455 mm^3
